# Antibody variant affinities, Ab-91 heavy chain, assay 2

Reference: Engelhart et al. 2022, doi:10.1038/s41597-022-01779-4. File: FLAb, binding data.

The target is the same throughout: PDVDLGDISGINAS, from the HR2 region of SARS-CoV-2 spike.

Ab-91 is the parent antibody, in scFv form: VL, then a 15-residue (Gly4Ser)3 linker, then VH. The light chain is unchanged in all variants.
VL: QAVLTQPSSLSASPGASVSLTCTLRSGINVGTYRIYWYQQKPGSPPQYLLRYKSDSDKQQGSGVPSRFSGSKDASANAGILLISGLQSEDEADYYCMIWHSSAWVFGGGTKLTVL
VH: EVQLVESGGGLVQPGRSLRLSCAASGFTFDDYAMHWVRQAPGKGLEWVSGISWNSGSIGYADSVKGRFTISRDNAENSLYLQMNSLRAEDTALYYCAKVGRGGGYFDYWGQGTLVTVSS

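The parent was found by panning a naive human phage display library on the peptide. The library (AAYL51) carries one to three amino acid substitutions per variant, with no insertions or deletions. In AlphaSeq, yeast of one mating type display the scFv and yeast of the other type display the target. Binding brings cells together so that they mate, and sequencing counts the barcode pairs among the diploids. Scores were corrected for input abundance and mapped to Kd with protein pairs of known affinity run in the same pool. Mating was done three times.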

Each variant is given by its three heavy chain CDRs, as the data file delimits them; those of the parent are GFTFDDYAMH, GISWNSGSIGYADSVK, VGRGGGYFDY. Values are log10 of the apparent Kd in nM; lower means stronger binding. Replicates are averaged; those with no signal do not enter the mean. "not detected" means that the variant was in the library but no mating with the target was seen in any replicate; the authors take this as a sign of poor binding, and no number exists. For reference, the parent read 1.86 as the reference entry and 0.88 as a member of this library.

| # | CDR-H1 | CDR-H2 | CDR-H3 | mean, log10 nM | detected |
|---|---|---|---|---|---|
| 1 | GFWFDDYAMH | GISWNSGSIGYADSVK | VGRDGGYFDV | 2.06 | 3 of 3 |
| 2 | GFTFDDYAMH | GISWNSGSVGYNDSVK | VGRGGGYCDY | 2.02 | 3 of 3 |
| 3 | GFTFDDYAME | GISWNHGSIGYADSVK | VGRGGGYTDY | not detected | 0 of 3 |
| 4 | NFTFDDDAVH | GISWNSGSIGYADSVK | VGRGGGYFDY | 4.23 | 2 of 3 |
| 5 | GFTFDDYAMH | DISWHSGSIGYADSVK | VGRGGGRFDY | 5.04 | 2 of 3 |
| 6 | GFQFDDYAMH | GISWNSGDIGYADSVK | VGRGGGYFDE | 1.31 | 3 of 3 |
| 7 | GFTFDDYAMH | GISWNSGPIGYADKRK | VGRGGGYFDY | not detected | 0 of 3 |
| 8 | GFTVDDYAMH | GISWNSGMIGYWDSVK | VGRGGGYFDY | 5.31 | 1 of 3 |
| 9 | GFTVGDYAMH | GISWNSGSIGYADSVK | VGRGGGYFDY | 2.54 | 3 of 3 |
| 10 | GFLFDDYAMH | GISWNSGSITYADSVK | VGRGGGYFYY | not detected | 0 of 3 |
| 11 | GFTFDDYAMH | GNSWNSGSIGYADSVK | VGRFGGYLDY | 4.66 | 2 of 3 |
| 12 | GFTFDDLAMH | GISWNRGSQGYADSVK | VGRGGGYFDY | 4.27 | 1 of 3 |
| 13 | GFTFDDYASH | GESWNSGSIGYADCVK | VGRGGGYFDY | 5.46 | 2 of 3 |
| 14 | GVTFDDYAMH | GISNNSGSIGYADSVK | VGRGGGYFDY | 4.51 | 2 of 3 |
| 15 | GFTFDDYAMH | GISWNSCSIGYADSVK | VGRPGGFFDY | not detected | 0 of 3 |
| 16 | GFTTDDYAMH | GISWNSGNIGYADSVW | VGRGGGYFDY | not detected | 0 of 3 |
| 17 | PFTFDDYAMH | GISWNSGSIGYADSVK | VGRGGGYFTY | 4.80 | 3 of 3 |
| 18 | GFTFDDYAMH | GISWNSNSIGYADSVK | VWRRGGYFDY | 5.02 | 2 of 3 |
| 19 | GFTFDDIAMH | GISWNSGSIGYKDSVK | VGRGDGYFDY | not detected | 0 of 3 |
| 20 | GFTFDDYAMH | GISWNSGSIGYNDSVK | PGRGGGYFNY | 2.18 | 3 of 3 |
| 21 | GFTFDDYAMH | GISWNSGSVGYFDSVK | VGRGGGYFDV | 2.91 | 3 of 3 |
| 22 | GFTFDDYACH | GISWNSGSIGYADSVK | SGRGGGYFDY | 4.35 | 1 of 3 |
| 23 | GKTFDDYAMH | GISWNSGSIGYADSVK | VGRGGGYFYY | 5.67 | 1 of 3 |
| 24 | GFTFDDYAMH | GTSWNSGSIGAADSVK | VGRGGGYMDY | 5.04 | 1 of 3 |
| 25 | GFTFWDYAMH | GISWNSGSIGYADSVK | SGRGGGYFDW | 5.43 | 2 of 3 |
| 26 | GFTFTDYAMH | GISWNSFSLGYADSVK | VGRGGGYFDY | 2.08 | 3 of 3 |
| 27 | EVTFDDYAMQ | GISWNSGSIGYADSVK | VGRGGGYFDY | 2.22 | 3 of 3 |
| 28 | MFTFDDYAMH | GISWNSGSIGYADSVK | VGDGGGYKDY | 3.87 | 2 of 3 |
| 29 | GFTFDDYAGH | GISWNSGMIGYADSVK | DGRGGGYFDY | 4.52 | 2 of 3 |
| 30 | GFTFEDYAMH | GISWNSGSIGYADSVS | VGAGGGYFDY | not detected | 0 of 3 |
| 31 | GFTFDDLAMH | GISWNTGSIGYADSVK | VGQGGGYFDY | not detected | 0 of 3 |
| 32 | GFTFDDYPMH | GISWYSTSIGYADSVK | VGRGGGYFDY | 5.04 | 2 of 3 |
| 33 | GFTFDDYAMH | GISVNSTSIIYADSVK | VGRGGGYFDY | 4.33 | 1 of 3 |

Continued, with the values leading:

| # | mean, log10 nM | detected | CDR-H1 | CDR-H2 | CDR-H3 |
|---|---|---|---|---|---|
| 34 | 2.17 | 3 of 3 | GFTFDDYAMH | GISWNSGSIGYADSVK | VGRNGGVFDY |
| 35 | not detected | 0 of 3 | GFTFDDNMMH | GISWNSGSIGYADSHK | VGRGGGYFDY |
| 36 | 1.13 | 3 of 3 | GFFFDWYAMH | GISWNSGSMGYADSVK | VGRGGGYFDY |
| 37 | 5.20 | 1 of 3 | GFTFDDPAMH | GISWNSGSIGYADSVK | VGMGGRYFDY |
| 38 | 5.19 | 1 of 3 | GFKFDDYAMH | GIRWNSGSICYADSVK | VGRGGGYFDY |
| 39 | not detected | 0 of 3 | GFTFDDYAMT | GISWNSGSPGYADSVK | VGRGGGYFDY |
| 40 | 4.41 | 3 of 3 | GFTFDDYAMH | GISWMSHSIGYADSVK | VGRGGGYFDY |
| 41 | not detected | 0 of 3 | GFTFDDYAMH | GISWNSGSIGYRLSVK | VPRGGGYFDY |
| 42 | 4.67 | 1 of 3 | GFTFDDYAMH | AISWNSGSIGYADSVK | VGSGGGYFQY |
| 43 | 1.69 | 3 of 3 | GFTFDDYAMH | GISWNSRYIGYADSVK | VGRGGGYFNY |
| 44 | not detected | 0 of 3 | GFTFDDYAMH | GISWNTGSIGFADSVK | VGRGGGYFDI |
| 45 | 3.69 | 2 of 3 | GFTFRDYAMH | GISWNSGSGGYADSVK | VGRGGGYFDY |
| 46 | 4.03 | 1 of 3 | GITFDDYAMH | GISWNSGSIGYADSVK | VGRGGGYADY |
| 47 | 2.00 | 3 of 3 | GFTFDDYAMH | GISWNSGSIGTADSVK | VGRGGVYFDY |
| 48 | not detected | 0 of 3 | GFTFDDYAMH | GINWNSGSIIYACSVK | VGRGGGYFDY |
| 49 | 4.78 | 2 of 3 | GFTFDDYAMH | GISWISGSIGYADSVK | VGRGGGYFLY |
| 50 | 2.48 | 3 of 3 | GFTNDQYAMH | GISWNSGSIGYADSVK | VGRYGGYFDY |
| 51 | not detected | 0 of 3 | GFTFDDSAMH | GISWNSGHIGYADSVI | VGRGGGYFDY |
| 52 | not detected | 0 of 3 | YPTFDDYAMH | GISWNSGSIGYADSVK | VGRGGGYFDY |
| 53 | 3.93 | 2 of 3 | GFTFDHYAEH | GISWDSGSIGYADSVK | VGRGGGYFDY |
| 54 | 4.51 | 3 of 3 | GHTFDDIAMH | GISWNSGSIGYADSVK | VCRGGGYFDY |
| 55 | not detected | 0 of 3 | GFTFDDYAMH | IISWNSGSIGIADSVK | VGRGGGYFDY |
| 56 | 3.68 | 1 of 3 | GFTFDDYAMH | QISWNSGSIGYAGSVK | VGRGGGYFDT |
| 57 | not detected | 0 of 3 | GFLFDDYAMH | GHSWNSGSIGYADSVK | VGWGGGYFDY |
| 58 | 5.33 | 1 of 3 | GFTFDDYAMH | GIHWNSGSIGYADMVK | VGGGGGYFDY |
| 59 | not detected | 0 of 3 | TFTFDDYAMH | GISWESGSIGYADSHK | VGRGGGYFDY |
| 60 | 3.83 | 1 of 3 | GFTFDDYAMH | GISWNSGSHGYADSVK | VGRGGVKFDY |
| 61 | not detected | 0 of 3 | FFTFDDYAMH | FISWNSGSIGYADSVR | VGRGGGYFDY |
| 62 | 4.86 | 2 of 3 | GFTFDDYATH | GISWLSGKIGYADSVK | VGRGGGYFDY |
| 63 | 3.91 | 1 of 3 | GFTFDDYAMH | GISWNSGSIGYADSTK | DGRGGGYLDY |
| 64 | not detected | 0 of 3 | QFTFDDYAMH | GISWNSGSIGYADSVK | VGRGNGYFDY |
| 65 | 5.28 | 2 of 3 | GFTFDDYAMH | MISWNSGSIGYADSVK | VGRGSGYFDY |
| 66 | 5.38 | 2 of 3 | GGTFDDYAMH | GICWNSGSIAYADSVK | VGRGGGYFDY |

As a blank, each scFv also met three strains without target: over library AAYL51, 21% of these pairings were detected, typically at 4.54 and seldom below 3.26.